Compounds with a hit are over-represented: about 1.5% of the library has one in this group of screens.
eIF4H inh – inhibitors of RNA binding by human eIF4H; Q15056; eIF4H fluorescence polarization binding assay; inhibition, % at 35 µM; actives 0.94% (n = 290,000);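 also: calls also rest on retests at 20 µM and on dose response follow-up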
UUG fidelity – modulators of start codon recognition fidelity in yeast; S. cerevisiae UUG-firefly luciferase reporter, luminescence/redox ratio; AID 602363; 350,000 tested, 0.13% active; activity score, % at 18.7 µM;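 active = replicate mean at a twofold rise or more, about +100% in these data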;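 also: firefly luciferase made from a UUG start codon reports start codon fidelity; reporter light over untreated wells divided by growth signal over untreated wells; some hits fall short of that in this replicate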
PABP polyA inh – blocks human PABP binding to poly(A) RNA; P11940; fluorescence polarization; calls only at 35 µM; actives 1% (n = 290,000); AID 2014;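 also: calls also rest on retests at 20 µM and on dose response follow-up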
PABP1 MLLE inh – blocks PAM2 peptide binding to the PABP1 MLLE domain. P11940. GST-MLLE / FITC-PAM2 fluorescence polarization. inhibition, % at 20 µM. actives 0.36% (n = 360,000). AID 588489; in the data active = inhibition above about 35%, passing the limit was not always enough;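 also: plate controls were DMSO wells with GST-MLLE for no effect and wells lacking GST-MLLE protein for full effect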
DSG3 Ab inh – blocks pemphigus antibody binding to human desmoglein-3. actives 0.48% (n = 310,000). AID 588358. DSG3-coupled beads, scFv-anti-DSG3-GFP binding, flow cytometry; hits give low values. P32926. binding (percent of control), % at 10 µM;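 active = binding more than 3 SD below its plate's average and above zero; inconclusive = below that plate limit but binding exactly zero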;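 also: hits lower antibody fragment binding to DSG3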
An asterisk follows results filed as active. Unless noted, no rule for the calls is given here.

Preview (three entries):
Screening COc1ccccc1CNC(=O)Cn1cnnn1 returned eIF4H inh -7.9, UUG fidelity -7.8, PABP polyA inh inactive, PABP1 MLLE inh -10.4 and DSG3 Ab inh 109.2.
For Cc1cc(-c2sccc2C)nc(-n2cccc2)n1 the results were eIF4H inh inconclusive, UUG fidelity -5.2, PABP polyA inh active, PABP1 MLLE inh 3.2 and DSG3 Ab inh 90.6.
`Cc1nc2cc(-c3sccc3-n3cccc3)nn2c(C)c1C` gave eIF4H inh 2.6, UUG fidelity -19.9, PABP polyA inh inactive, PABP1 MLLE inh 1.1 and DSG3 Ab inh 99.0.

Results, from the first entry:
Screening COc1ccccc1CNC(=O)Cn1cnnn1 returned eIF4H inh -7.9, UUG fidelity -7.8, PABP polyA inh inactive, PABP1 MLLE inh -10.4 and DSG3 Ab inh 109.2.
For Cc1cc(-c2sccc2C)nc(-n2cccc2)n1 the results were eIF4H inh inconclusive, UUG fidelity -5.2, PABP polyA inh active, PABP1 MLLE inh 3.2 and DSG3 Ab inh 90.6.
`Cc1nc2cc(-c3sccc3-n3cccc3)nn2c(C)c1C` gave eIF4H inh 2.6, UUG fidelity -19.9, PABP polyA inh inactive, PABP1 MLLE inh 1.1 and DSG3 Ab inh 99.0.
Screening O=C(O)c1cccc2cccc(-c3c4ccc(=O)c(O)c-4oc4c(O)c(O)ccc34)c12 returned PABP1 MLLE inh 38.9 and DSG3 Ab inh 13.4*.
`CCC(=O)NC(=S)NNC(=O)c1ccccc1[N+](=O)[O-]` gave eIF4H inh inconclusive, PABP polyA inh active, PABP1 MLLE inh 9.6 and DSG3 Ab inh 105.9.
`C[C@@H]1CN([C@H](C)CO)C(=O)c2cccc(NC(=O)Nc3ccc4c(c3)OCO4)c2O[C@H]1CN(C)C(=O)Nc1cccc2ccccc12` gave UUG fidelity -11.3.
`Cc1oc2ccc(O)cc2c1C(=O)c1ccc([N+](=O)[O-])cc1` gave eIF4H inh active, UUG fidelity -4.4, PABP polyA inh active, PABP1 MLLE inh -3.5 and DSG3 Ab inh 117.6.
Screening Cc1ccc(-c2csc3ncn(CC#N)c(=O)c23)cc1 returned eIF4H inh 38.7, UUG fidelity -6.4, PABP polyA inh inactive, PABP1 MLLE inh -18.5 and DSG3 Ab inh 99.6.
`Cc1ccc(-c2csc3ncn(CC#N)c(=O)c23)cc1C` gave eIF4H inh 54.0*, UUG fidelity -15.0, PABP polyA inh active, PABP1 MLLE inh -10.3 and DSG3 Ab inh 119.6.
Cc1cc(-c2onc(C)c2C(=O)N/N=C/c2ccccc2)no1 was read as eIF4H inh -4.5, PABP polyA inh inactive, PABP1 MLLE inh -4.8 and DSG3 Ab inh 108.8.
Screening Cc1ccc(SC(=O)c2c(C)noc2-c2cc(C)on2)cc1 returned eIF4H inh -5.6, UUG fidelity -11.4, PABP polyA inh inactive, PABP1 MLLE inh 41.4* and DSG3 Ab inh 94.2.
COc1ccc(NC(=O)N(C)C[C@H]2Oc3ccc(NS(=O)(=O)c4cn(C)cn4)cc3C(=O)N([C@@H](C)CO)C[C@@H]2C)cc1 was read as UUG fidelity 2.9.
For CN(C)CCSc1nc(O)c(-c2ccccc2)c(=O)n1-c1ccccc1 the results were eIF4H inh -6.0, PABP polyA inh inactive, PABP1 MLLE inh 14.7 and DSG3 Ab inh 114.2.
`CCCCc1c(O)nc(SCCN(C)C)n(-c2ccccc2)c1=O` gave eIF4H inh -14.3, UUG fidelity -5.0, PABP polyA inh inactive, PABP1 MLLE inh 37.8* and DSG3 Ab inh 106.0.
CC(C)C#Cc1cnc2c(c1)C(=O)N([C@@H](C)CO)C[C@H](C)[C@H](CN(C)C(=O)CCN1CCCCC1)O2 was read as UUG fidelity 26.0.
For CN(C(=S)NC(=O)c1ccccc1)c1c(N)n(Cc2ccccc2)c(=O)[nH]c1=O the results were eIF4H inh -7.8, UUG fidelity -17.4, PABP polyA inh inactive, PABP1 MLLE inh 40.1* and DSG3 Ab inh 99.7.
For C[C@@H]1CN([C@@H](C)CO)S(=O)(=O)c2ccc(-c3cccnc3)cc2O[C@H]1CN(C)Cc1cncnc1 the results were UUG fidelity -19.3.
For Cc1ccc(-c2onc3ccc(Cl)cc23)cc1 the results were eIF4H inh -3.4, UUG fidelity -2.5, PABP polyA inh inactive, PABP1 MLLE inh 8.6 and DSG3 Ab inh 98.0.
Screening COc1ccc(-c2onc3ccc(Cl)cc23)cc1 returned eIF4H inh 50.6*, UUG fidelity -20.5, PABP polyA inh active, PABP1 MLLE inh 24.0 and DSG3 Ab inh 88.9.
`NS(=O)(=O)c1ccc(NCc2cnc3ccccc3n2)cc1` gave UUG fidelity -13.7, PABP1 MLLE inh -3.3 and DSG3 Ab inh 100.4.
N#CCc1cnc2ccccc2n1 was read as eIF4H inh 89.3*, UUG fidelity -17.7, PABP polyA inh active, PABP1 MLLE inh 12.5 and DSG3 Ab inh 112.9.
For C[C@H]1CN([C@@H](C)CO)C(=O)c2cc(NS(=O)(=O)c3cn(C)cn3)ccc2O[C@H]1CN(C)Cc1ccc(Oc2ccccc2)cc1 the results were UUG fidelity -11.5.
CCC(C(=O)OCC(=O)Nc1cc(OC)ccc1OC)c1ccccc1 (configuration not stated) was read as eIF4H inh -5.6, PABP polyA inh active, PABP1 MLLE inh -13.1 and DSG3 Ab inh 101.1.

Compound activity from PubChem BioAssay.
